The text below walks through data of publication PMC5995969, “Structural basis for the regulation of human 5,10-methylenetetrahydrofolate reductase by phosphorylation and S-adenosylmethionine inhibition” (Nature Communications, 2018).

Amino acid sequences for entries named in this document (tags omitted). Residues count along the entry.
UniProt P46151, 1-301: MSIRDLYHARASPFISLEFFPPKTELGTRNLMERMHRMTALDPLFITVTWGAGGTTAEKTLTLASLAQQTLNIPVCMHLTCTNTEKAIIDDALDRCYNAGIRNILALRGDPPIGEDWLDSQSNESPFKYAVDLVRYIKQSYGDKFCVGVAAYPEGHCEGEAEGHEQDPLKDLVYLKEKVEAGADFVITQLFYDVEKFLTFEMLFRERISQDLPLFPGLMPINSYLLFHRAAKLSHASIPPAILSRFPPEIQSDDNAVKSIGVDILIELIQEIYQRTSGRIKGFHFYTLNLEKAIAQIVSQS

The assay has as its target MET12 (ScMET12) (Saccharomyces cerevisiae, UniProt P46151).

With `Cc1cc2nc3c(=O)[nH]c(=O)nc-3n(C[C@H](O)[C@H](O)[C@H](O)COP(=O)(O)OP(=O)(O)OC[C@H]3O[C@@H](n4cnc5c(N)ncnc54)[C@H](O)[C@@H]3O)c2cc1C` [FAD], the “1.56 Å crystal structure” value is given as “blocked by a crystal packing interaction from a nearby symmetry mate, making π–π stacking interactions with the FAD ligand”.
